Measurements reported in patent publication US12421232B2, “Kinase inhibitor compounds and compositions and methods of use” (ICAHN SCHOOL OF MEDICINE AT MOUNT SINAI, priority 2018, dated 2025).
Read-outs that look alike come from different tables or passages of the source.

Biological target: DYRK1A (Homo sapiens, UniProt Q13627)
Experiment: FRET-based LanthaScreen Eu Kinase Binding Assay (Life Technologies)
Conditions: for inhibition at 0.3 µM: read-out: % DYRK1A Inhibition 300 nM; for inhibition at 1 µM: read-out: % DYRK1A Inhibition 1000 nM
[1] = read-out: DYRK1A IC50, ten serial three fold dilutions (in duplicate)

Compound | % DYRK1A Inhibition 300 nM (300 nM) [%] | inhibition at 0.3 µM [%] | inhibition at 1 µM [%] | other results
7-acetamide-1-methyl-9H-b-carboline [Compound 10-11] | 48 |  |  | % DYRK1A Inhibition 1000 nM (1000 nM): 77%; IC50 [1]: 389 nM
3-(7-oxy-1-methyl-9-H-b-carbolin)-2-acetyl-propylamine [Compound 10-6b] | 22 |  |  | % DYRK1A Inhibition 1000 nM (1000 nM): 49%
Cc1nccc2c1[nH]c1cc(OCC(N)=O)ccc12 [Compound 10-3a, 2-(7-oxy-1-methyl-9-H-b-carbolin)acetamide] | 10 |  |  | % DYRK1A Inhibition 1000 nM (1000 nM): 30%
CCCCNC(=O)C(C)CCn1c2cc(OC)ccc2c2ccnc(C)c21 (stereo not drawn) [Compound 20-10i, N-(butyl)-4-(7-Methoxy-1-methyl-β-carbolin-9-yl)-α-methylbutanamide] |  | 25 | 53 | 
COc1ccc2c3ccnc(C)c3n(CCCC=O)c2c1 [Compound 20-15b, 4-(7-Methoxy-1-methyl-β-carbolin-9-yl)butanal] |  | 95 | 98 | 
4-(7-Methoxy-1-methyl-β-carbolin-9-yl)propionitrile [Compound 20-1o] |  |  |  | % DYRK1A Inhibition 300 nM: 86%; % DYRK1A Inhibition 1000 nM: 94%
Cc1nccc2c1[nH]c1cc(OCCCN)ccc12.Cl [Compound 10-5b, 3-(7-oxy-1-methyl-9-H-b-carbolin)propylamine hydrochloric acid] | 8 |  |  | 
COc1ccc2c3ccnc(C)c3n(CCC(N)C#N)c2c1 (stereo not drawn) [Compound 20-16a, 3-(7-Methoxy-1-methyl-β-carbolin-9-yl)-1-cyanopropylmine] |  |  |  | % DYRK1A Inhibition 300 nM: 88%; % DYRK1A Inhibition 1000 nM: 97%
Cc1nccc2c1[nH]c1cc(OC(F)(F)F)ccc12 [Compound 20-35, 7-trifluoromethoxy-1-methyl-9H-pyrido[3,4-b]-indole] |  |  | 31 | 
COc1ccc2c3ccnc(C)c3n(CCCN(C)C)c2c1 [Compound 20-9a, N,N-dimethyl-3-(7-Methoxy-1-methyl-β-carbolin-9-yl)propylamine] |  | 10 | 26 | 
Cc1nccc2c1[nH]c1cc(OCC(=O)O)ccc12 [Compound 10-4a, 2-(7-oxy-1-methyl-9-H-b-carbolin)acetic acid] |  | 3 | 6 | IC50 (DYRK1A IC50): 71 nM
COCCn1cc(CCCn2c3cc(OC)ccc3c3ccnc(C)c32)nn1 [Compound 20-24b, 4-(3-(7-Methoxy-1-methyl-β-carbolin-9-yl)propyl)-1-(2-methoxyethyl)-1,2,3-triazole] |  | 42 | 78 | 
Cc1nccc2c1[nH]c1cc(N)ccc12 [Compound 10-9, 7-amino-1-methyl-9H-b-carboline] |  | 8 |  | 
C=CCn1c2cc(OC)ccc2c2ccnc(C)c21 [Compound 20-1t, 3-(7-Methoxy-1-methyl-β-carbolin-9-yl)-propan-1-ene] |  | 90 | 97 | 
COc1ccc2c3ccnc(C)c3n(CCC(N)C(N)=O)c2c1 (stereo not drawn) [Compound 20-17a, 3-(7-Methoxy-1-methyl-β-carbolin-9-yl)-1-(carboxylamide)propylmine] | 93 |  |  | % DYRK1A Inhibition 1000 nM (1000 nM): 98%
Cc1nccc2c1[nH]c1cc(OCCCC(=O)O)ccc12 [Compound 10-4c, 4-(7-oxy-1-methyl-9-H-b-carbolin)butnoic acid] | 6 |  |  | 
CCCCNC(=O)CCCn1c2cc(OC)ccc2c2ccnc(C)c21 [Compound 20-10d, N-(butyl)-4-(7-Methoxy-1-methyl-β-carbolin-9-yl)butanamide] |  | 38 | 76 | 
2-(7-oxy-1-methyl-9-H-b-carbolin)-2-acetyl-ethylamine [Compound 10-6a] | 24 |  |  | % DYRK1A Inhibition 1000 nM (1000 nM): 49%
CCCC(C)NC(=O)C(C)CCn1c2cc(OC)ccc2c2ccnc(C)c21 (stereo not drawn) [Compound 20-10j, N-(1-methylbutyl)-4-(7-Methoxy-1-methyl-β-carbolin-9-yl)-α-methylbutanamide] |  | 33 | 69 | 
3-(7-deuteromethoxy-1-methyl-β-carbolin-9-yl)-propan-1-yne [Compound 20-33] |  |  |  | IC50 [1]: 8 nM
Cc1nccc2c1[nH]c1cc(NC(=O)c3ccccc3)ccc12 [Compound 10-10, 7-benzamide-1-methyl-9H-b-carboline] | 37 |  |  | % DYRK1A Inhibition 1000 nM (1000 nM): 65%
6-(6-(7-methoxy-1-methyl-β-carbolin-9-yl)pentyl)-5-amino-1,2,4-oxadiazole [Compound 20-38d] |  |  |  | IC50 [1]: 178 nM
CCCC(C)NC(=O)CCCn1c2cc(OC)ccc2c2ccnc(C)c21 (stereo not drawn) [Compound 20-10e, N-(1-methylbutyl)-4-(7-Methoxy-1-methyl-β-carbolin-9-yl)butanamide] |  | 42 | 74 | 
Cc1nccc2c1[nH]c1cc(OCCCNC(=O)OC(C)(C)C)ccc12 [Compound 10-2l, 3-(7-oxy-1-methyl-9-H-b-carbolin)propyl tert-butyl carbamate] |  |  |  | % DYRK1A Inhibition 1000 nM (1000 nM): 50%
C#CCCn1c2cc(OC)ccc2c2ccnc(C)c21 [Compound 20-23b, 4-(7-Methoxy-1-methyl-β-carbolin-9-yl)-but-1-yne] |  | 89 | 97 | 
CCCC(C)NC(=O)C(C)(C)CCn1c2cc(OC)ccc2c2ccnc(C)c21 (stereo not drawn) [Compound 20-10l, N-(1-methylbutyl)-4-(7-Methoxy-1-methyl-β-carbolin-9-yl)-α,α-dimethylbutanamide] |  | 83 | 96 | 
3-(7-oxy-1-methyl-9-H-b-carbolin)ethoxyethyl [Compound 10-2p] | 19 |  |  | % DYRK1A Inhibition 1000 nM (1000 nM): 37%
Cc1nccc2c1[nH]c1cc(OCCCCC(=O)O)ccc12 [Compound 10-4d, 5-(7-oxy-1-methyl-9-H-b-carbolin)pentanoic acid] | 20 |  |  | 
C#CCn1c2cc(OC)ccc2c2ccnc(C)c21 [Compound 20-23a, 3-(7-Methoxy-1-methyl-β-carbolin-9-yl)-propan-1-yne] |  | 98 | 100 | 
COc1ccc2c3ccnc(C)c3n(CCc3ccccc3)c2c1 [Compound 20-1y, 2-(7-Methoxy-1-methyl-β-carbolin-9-yl)-1-phenylethane] |  | 93 | 98 | 
